Assay results published in patent publication US7105551B2, “Thiazole derivatives for treating PPAR related disorders” (SmithKline Beecham Corporation, priority 2000, dated 2006).

The chains behind the UniProt entries cited, without tags or fusion partners. Residues count along the entry.
UniProt P37231, 238-503 limits assumed: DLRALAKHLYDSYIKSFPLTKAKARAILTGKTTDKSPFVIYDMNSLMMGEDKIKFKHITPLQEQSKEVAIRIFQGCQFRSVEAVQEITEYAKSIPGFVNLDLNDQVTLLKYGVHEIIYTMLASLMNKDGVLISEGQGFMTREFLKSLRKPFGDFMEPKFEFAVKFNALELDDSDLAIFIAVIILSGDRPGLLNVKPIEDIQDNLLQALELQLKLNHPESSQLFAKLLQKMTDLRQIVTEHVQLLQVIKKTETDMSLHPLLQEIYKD

Columns and labels:
Assay type in all cases: cell-based
hPPAR α = target: T1, hPPAR α (Homo sapiens, UniProt Q07869); assay: Transient transfection (transactivation) assay in CV-1 cells, hPPAR alpha
T1 construct: expressed in transfected cells; host or cells: CV-1 cells
T1 sequence (Q07869 239-466 limits assumed): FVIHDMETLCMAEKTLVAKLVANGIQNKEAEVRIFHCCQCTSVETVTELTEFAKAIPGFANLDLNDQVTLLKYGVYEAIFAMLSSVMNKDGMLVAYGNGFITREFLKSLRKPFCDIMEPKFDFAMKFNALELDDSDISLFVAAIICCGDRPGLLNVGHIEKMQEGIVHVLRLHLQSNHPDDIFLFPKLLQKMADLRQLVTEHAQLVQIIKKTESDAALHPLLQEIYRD
Text: (§1) Compounds were screened for functional potency in transient transfection assays in CV-1 cells for their ability to activate the PPAR subtypes (transactivation assay). A previously established chimeric receptor system was utilized to allow comparison of the relative transcriptional activity of the receptor subtypes on the same target gene and to prevent endogenous receptor activation from complicating the interpretation of results. […] The ligand binding domains for murine and human PPAR alpha, PPAR gamma, and PPAR delta were each fused to the yeast transcription factor GAL4 DNA binding domain. CV-1 cells were transiently transfected with expression vectors for the respective PPAR chimera along with a reporter construct containing five copies of the GAL4 DNA binding site driving expression of secreted placental alkalin phosphatase (SPAP) and beta-galactosidase. After 16 h, the medium was exchanged to DME medium supplemented with 10% delipidated fetal calf serum and th test compound at the appropriate concentration. After an additional 24 h, cell extracts were prepared and assayed for alkaline phosphatase and β-galactosidase activity. […] The positive control in the hPPAR alpha assays was 2-methyl-2-[4-{[(4-methyl-2-[4-trifluoromethylphenyl]-thiazol-5-yl-carbonyl)amino]methyl}-phenoxy]propionic acid. […]

hPPAR δ = target: T2, hPPAR δ (Homo sapiens, UniProt Q03181); assay: Transient transfection (transactivation) assay in CV-1 cells, hPPAR delta
T2 construct: expressed in transfected cells; host or cells: CV-1 cells
T2 sequence (Q03181 211-439 limits assumed): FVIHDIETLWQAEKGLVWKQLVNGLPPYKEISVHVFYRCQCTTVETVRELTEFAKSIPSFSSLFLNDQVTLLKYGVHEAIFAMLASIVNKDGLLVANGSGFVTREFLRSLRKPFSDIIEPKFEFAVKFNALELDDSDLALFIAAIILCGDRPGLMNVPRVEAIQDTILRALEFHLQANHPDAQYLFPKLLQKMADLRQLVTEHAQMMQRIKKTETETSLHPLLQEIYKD
Text: as §1

hPPAR γ = target: T3, hPPAR γ (Homo sapiens, UniProt P37231); assay: Transient transfection (transactivation) assay in CV-1 cells, hPPAR gamma
T3 construct: expressed in transfected cells; host or cells: CV-1 cells
Text: as §1

Cc1cc(SCc2sc(-c3ccc(C(F)(F)F)cc3F)nc2C)ccc1OC(C)(C)C(=O)O [Example 1, 2-{4-[({2-[2-fluoro-4-(trifluoromethyl)phenyl]-4-methyl-1,3-thiazol-5-yl}methyl)sulfanyl]-2-methylphenoxy}-2-methylpropanoic acid]
EC50 (hPPAR α): 43 nM
EC50 (hPPAR δ): 2.5 nM
EC50 (hPPAR γ): 57 nM
